For the assay, the system named is ENO1-null D423-MG cells. Put plainly: Relative growth with receptor tyrosine kinase inhibitors or rapamycin. The format is cell-based, human. As to conditions: combination of sorafenib, lapatinib and PHA665752.

The text below walks through data of US20140378529A1, “COLLATERAL GENE INACTIVATION BIOMARKERS AND TARGETS FOR CANCER THERAPY” (Board Regents, The University of Texas System, priority 2011, published 2014).

In the case of `CNC(=O)c1cc(Oc2ccc(NC(=O)Nc3ccc(Cl)c(C(F)(F)F)c3)cc2)ccn1` [sorafenib], the “sensitivity of ENO1-null D423-MG cells versus ENO1 WT GBM cell lines” value is “no more sensitive”.
